Source: US8530468B2 (Cancer Research Technology Limited, priority 2008, dated 2013)

Experiments:
HT29 cells = experiment: Mitosis inhibition assay (MIA), checkpoint abrogation after etoposide; assay type: cell-based; conditions: Homo sapiens, HT-29, HT29 cells, etoposide 50 μM 1 hour, then compound with nocodazole 100 ng/mL, 21 hours; read-out: MIA IC50 (concentration required to allow 50% of cells to enter mitosis)
Description: Checkpoint abrogation by CHK1 kinase function inhibitors in combination with genotoxic agents was assessed using a europium based ELISA assay designed to quantify the number of cells trapped in mitosis after treatment with a genotoxic agent (to induce G2 arrest) followed by a test compound in combination with nocodazole to abrogate this arrest.
HT29 cells were seeded at 10^4 cells per well into 96 well plates in a volume of 160 μL and left to attach for 36 hours. Etoposide (10 mM stock in DMSO) was diluted in medium to 250 μM and then 40 μL was added to appropriate wells to give a final concentration of 50 μM and incubated for 1 hour. This treatment had previously been optimised to induce a G2 arrest in 80% of cells 16 hours following treatment. After genotoxic drug exposure, the medium was removed and replaced with fresh medium (160 μL). Cells were either untreated (untreated control or etoposide pre-treatment alone), exposed to nocodazole following etoposide pre-treatment or nocodazole alone (100 ng/mL final concentration), or exposed to increasing concentrations of test compound (200 μM-0.01 nM final concentration) in combination with nocodazole (100 ng/mL final concentration). Test compounds were added in 40 μL using quadruplicate wells for each dose. […] Europium emissions were counted on a Wallac, Victor^2 counter (Perkin-Elmer, Bucks UK). […]

[1] = tested on: HT29 colon carcinoma cells; experiment: Cytotoxicity assay (SRB); assay type: cell-based; conditions: Homo sapiens, HT-29, 96 h, read-out: SRB IC50 (concentration required to inhibit growth by 50%)
Description: HT29 colon carcinoma cells were obtained from ATCC (Rockville, Md., USA). Cells were grown in DMEM supplemented with 10% foetal calf serum and containing L-glutamine 5 mM, glucose, penicillin, and streptomycin. Cells were grown at 37° C. in a dry 5% CO2 atmosphere. Cytotoxicity assays were carried out in 96-well plates using quadruplicate wells for each dose. Cells were seeded at 1.6×10^3 per well in 160 μL medium and were allowed to attach for 36 hours prior to treatment. Test compounds were dissolved in DMSO at 10 mM and serially diluted in culture medium to 5× final concentration prior to addition in a volume of 40 μl per well. Cells were left for 4 doublings (96 hours) in the presence of the test compounds and then fixed in 10% TCA for 30 minutes, washed in water, and dried. The fixed cells were stained with Sulfurhodamine B (SRB, 0.4% in 1% acetic acid, Sigma, Dorset, UK) for 30 minutes, washed in 1% acetic acid, and dried. SRB was resolubilised in 10 mM Tris base and the OD was measured at 490 nm. Results were expressed relative to untreated controls and the concentration of compound required to inhibit growth by 50% (SRB IC50) was calculated.

N#Cc1cnc(Nc2cc3[nH]cnc3cn2)cn1 [BB-012, 5-(1H-imidazo[4,5-c]pyridin-6-ylamino)pyrazine-2-carbonitrile]
IC50 (HT29 cells): 33 µM | IC50 [1]: 61 µM
